Reference: patent publication US20060040911A1, “Method for preventing and/or treating the cardiovascular and hepatic diseases induced by hyperlipidemia which comprises administered an effective amount of bioflavonoids extract derived from fructus crataegus (lipid metabolism and fructus crataegus)” (priority 2003, published 2006)

Target: T1, 3-HMG-CoA reductase (Oryctolagus cuniculus, UniProt Q29512)
T1 construct: ultracentrifuged at 100,000 times gram for 60 minutes and again for another 60 minutes to obtain microsomal precipitates; from tissue; host or cells: rabbit liver microsomes
T1 sequence (Q29512 1-888): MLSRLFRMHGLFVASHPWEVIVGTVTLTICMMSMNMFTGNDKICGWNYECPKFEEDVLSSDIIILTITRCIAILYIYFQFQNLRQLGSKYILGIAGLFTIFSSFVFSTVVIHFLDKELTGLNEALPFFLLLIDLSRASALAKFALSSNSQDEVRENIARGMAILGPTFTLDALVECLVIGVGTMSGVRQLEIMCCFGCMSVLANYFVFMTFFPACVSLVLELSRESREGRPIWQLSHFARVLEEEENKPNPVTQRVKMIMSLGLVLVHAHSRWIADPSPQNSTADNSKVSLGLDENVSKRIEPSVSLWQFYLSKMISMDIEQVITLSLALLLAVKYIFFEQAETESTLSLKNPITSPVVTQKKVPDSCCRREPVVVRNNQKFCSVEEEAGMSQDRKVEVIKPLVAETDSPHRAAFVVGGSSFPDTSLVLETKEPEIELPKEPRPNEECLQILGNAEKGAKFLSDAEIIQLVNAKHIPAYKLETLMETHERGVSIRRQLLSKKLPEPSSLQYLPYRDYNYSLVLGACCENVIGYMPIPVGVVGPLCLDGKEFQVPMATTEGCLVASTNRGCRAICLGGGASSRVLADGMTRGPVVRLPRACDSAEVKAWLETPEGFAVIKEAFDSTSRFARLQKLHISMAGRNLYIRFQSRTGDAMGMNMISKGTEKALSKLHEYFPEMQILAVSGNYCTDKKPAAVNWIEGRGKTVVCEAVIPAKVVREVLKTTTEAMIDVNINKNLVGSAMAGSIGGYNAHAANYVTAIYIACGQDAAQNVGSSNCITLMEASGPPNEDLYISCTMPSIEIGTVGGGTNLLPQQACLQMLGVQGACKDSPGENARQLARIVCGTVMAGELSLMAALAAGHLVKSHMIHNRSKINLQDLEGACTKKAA
Assay: Activity of 3-HMG-CoA reductase in liver microsomes (modified Hulcher's method)
Assay type: biochemical, rabbit
Settings: liver microsomes of rabbits fed 8 weeks 1% cholesterol plus 0.15% bioflavonoid; control group 0%
Protocol: The activity of 3-HMG-CoA reductase was determined by modified Hulcher's method (Journal of lipid research; 14, 625-641, 1973), in which the concentration of Co-A will be produced when 3-HMG-CoA is reduced to mevalonate salt by the action of the 3-HMG-CoA reductase; then the reductase was determined by spectroscopy and the activity of the 3-HMG-CoA reductase was calculated.
Liver tissues from each group of rabbits from Example 4 Step B were obtained, 3 gram of tissue was washed with 100 ml of cold normal saline (1 N NaCl) and 100 ml of cold buffer solution-A (0.1M triethanolamine HCl/10 mM EDTA/10 mM dithiothreitol (DTT)). A cold buffered solution-A and liver tissue ratio was 2 ml per each gram. […] The precipitates were washed with cold buffer solution-A and kept at minus 70 degree C. till ready for analysis. […]
The mixture was then added with 20 µl of DTNB buffer solution (3 mM DTNB/0.1M triethanolamine/10 mM EDTA with PH of 7.4). The absorbance of this mixture was determined at wave length of 412 nm to calculate the amount of CoA that is the activity of 3-HMG-CoA reductase. The amount of inhibition on the activity of the 3-HMG-CoA reductase by rutin, quercetin, kaempherol and vitexin were calculated base on the above method.

Structure (SMILES): O=c1c(O)c(-c2ccc(O)cc2)oc2cc(O)cc(O)c12 [Kaempherol, 3,5,7,4′ tetra-hydroxy-flavone]
- Inhibition on the activity of 3-HMG-CoA reductase in percentage (%): 30%
